Series [1] is described as follows: Fluorescence emission spectra and quantum yield. The series is classed as physicochemical. Conditions: for λmax flu / λmax emiss.: 5 × 10^−7 M; for λmax emiss.: excitation 640 nm, slit widths 5 nm.
A short description of series [2]: UV-visible absorption spectra. The series is classed as physicochemical. Conditions: 5 × 10^−6 M.
On series [3], the source says: A trace pH=6.0, B trace pH=9.0. Excitation at 640 nm, slit widths 10 nm, 5×10^−7 M in water/CrEL.
FIG. 6. […] Excitation at 640 nm, slit widths 20 nm, 5×10^−7 M in water/CrEL. INaCl=150 mmol/L.

Values joined by “and” are separate entries in the source; they are usually repeats but may differ in a detail not shown here. Equal values may be shown once.

On to `OC[C@H]1O[C@@H](n2cc(COc3ccc(-c4cc(-c5ccccc5)c5n4[B-](F)(F)[N+]4=C(c6ccc(O)cc6)C=C(c6ccccc6)C4=N5)cc3)nn2)[C@H](O)[C@@H](O)[C@H]1O` [Compound 8a], for which, in series [1] (CH3OH), the λmax flu was 716 nm.
Consider `CC(C)(C)OC(=O)NCCn1cc(COc2ccc(C3=NC(=Nc4[nH]c(-c5ccc(O)cc5)cc4-c4ccccc4)C(c4ccccc4)=C3)cc2)nn1` [Compound 8c, {2-[4-(4-{5-[5-(4-Hydroxyphenyl)-3-phenyl-1H-pyrrol-2-ylimino]-4-phenyl-5H-pyrrol-2-yl}-phenoxymethyl)-[1,2,3]triazol-1-yl]ethyl}carbamic acid t-butyl ester], for which the λmax flu in series [1] (CH3OH) was found to be 716 nm.
As to `O=C(O)COc1ccc(C2=[N+]3C(=Nc4c(-c5ccccc5)cc(-c5ccc(OCC(=O)O)cc5)n4[B-]3(F)F)C(c3ccccc3)=C2)cc1` [Compound 16], the λmax emiss. in series [1] (CHCl3) worked out at 711 nm.
“BF2 Chelate of 4-{4-phenyl-5-[3-phenyl-5-(4-prop-2-ynyloxyphenyl)-pyrrol-2-ylideneamino]-1H-pyrrol-2-yl}phenol [Compound 2]”: the λmax abs in series [2] (C7H8) stood at 685 nm; in series [2] (CH3OH), 688 nm; in series [2] (CHCl3) it was 680 nm; in series [2] (H2O/CrEL) it was 700 nm. The “fluorescence signal at pH 9” value in series [3] (aqueous solutions, 729 nm) is “virtually complete suppression of fluorescence signal”. Besides, the “fluorescence intensity differential between pH 6 and 8” value in series [3] (at λmax 729 nm in aqueous solutions) was “greater than 15 fold”. Also, the “apparent pKa” value in series [3] (sigmoidal plot of pH versus fluorescence intensity, water/CrEL, NaCl 150 mmol/L) worked out at 6.9. This compound gave an isosbestic point in series [3] (water/CrEL, 5×10^−6 M, UV-visible pH profile) of 740 nm. Also, the “new absorption band with increasing pH” value in series [3] (water/CrEL, 5×10^−6 M, mono-deprotonated species) turned out to be 775 nm. The λmax flu was 711 nm in series [1] (C7H8); 716 nm in series [1] (CH3OH); 708 nm and 708^c nm in series [1] (CHCl3); 729 nm in series [1] (H2O/CrEL). In series [1] (CHCl3, 1 as standard), the “fluorescence quantum yield Φf” value was 0.37.
Take `O=S(=O)(O)CCCOc1ccc(C2=[N+]3C(=Nc4c(-c5ccccc5)cc(-c5ccc(OCCCS(=O)(=O)O)cc5)n4[B-]3(F)F)C(c3ccccc3)=C2)cc1` [Compound 17]: the λmax emiss. in series [1] (MeOH) amounted to 716 nm.
`O=C(O)CCCn1cc(COc2ccc(C3=NC(=Nc4[nH]c(-c5ccc(O)cc5)cc4-c4ccccc4)C(c4ccccc4)=C3)cc2)nn1` [Compound 8b, 4-[4-(4-[5-[5-(4-Hydroxyphenyl)-3-phenyl-1H-pyrrol-2-ylimino]-4-phenyl-5H-pyrrol-2-yl]-phenoxymethyl)-[1,2,3]triazol-1-yl]butyric acid] displayed a λmax flu in series [1] (CH3OH) of 716 nm.
On to `COCCOCCOCCOc1ccc(-c2cc(-c3ccccc3)c3n2[B-](F)(F)[N+]2=C(c4ccc(OCCNC(=O)OC(C)(C)C)cc4)C=C(c4ccccc4)C2=N3)cc1` [Compound 9], for which the λmax abs in series [2] (ethanol) is recorded as 688 nm.

Source of the values: patent publication US8907107B2 (Hae Therapeutics Limited, priority 2009, dated 2014).
